The values below come from patent US10787432B2, “N-[(pyridyloxy)propanyl]benzamides” (Boehringer Ingelheim International GmbH, priority 2016, dated 2020).

Amino acid sequences for entries named in this document (tags omitted).
UniProt O43613, whole entry, species assumed: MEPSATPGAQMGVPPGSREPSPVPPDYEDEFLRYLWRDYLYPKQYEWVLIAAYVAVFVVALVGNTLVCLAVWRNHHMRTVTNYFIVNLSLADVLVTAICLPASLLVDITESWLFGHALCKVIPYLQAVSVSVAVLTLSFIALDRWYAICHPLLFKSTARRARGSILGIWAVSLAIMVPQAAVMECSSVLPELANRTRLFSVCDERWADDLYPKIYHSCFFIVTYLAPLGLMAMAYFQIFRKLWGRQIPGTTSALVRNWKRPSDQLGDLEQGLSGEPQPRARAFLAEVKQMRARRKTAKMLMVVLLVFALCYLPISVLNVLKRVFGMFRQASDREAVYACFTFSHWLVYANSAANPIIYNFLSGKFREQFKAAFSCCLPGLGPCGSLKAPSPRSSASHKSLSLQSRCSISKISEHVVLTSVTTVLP

This test has as its target T1, OX1R (Homo sapiens, UniProt O43613).
T1 construct: host or cells: overexpressing cell lines of different origin (WO2013/187466); nothing is said for WO2016/034882
The test is described as follows: OX1R assay of WO2013/187466 (fluorescence measurement of intracellular Ca2+ changes, modified orexin A 300 pM). In kind it is cell-based. The note with it: ratio of IC50 values reported in WO2013/187466.

Turning to `CCN(C(=O)c1cc(F)ccc1-c1ncccn1)[C@@H](C)Cn1nnc(-c2ccc(F)cc2)n1` [Example 70 in WO2013/187466], the “OX2R IC50/OX1R IC50 as described in WO2013/187466” value came out at 411.
